This is a selection; strong and weak results do not stand in their true shares. Records with an inconclusive call do not appear. Where a call stands in place of a potency, no number is given. Activity calls are given as the source filed them. Calls follow the shape of the dose curve; as a rule, active = well fitted inhibition curve with a large enough effect (not every such curve was filed as active); inconclusive = small, poorly fitted or top-dose-only effect, or another doubt; inactive = no such curve, though single readings can be large or run the other way.
Molecular target: Lysine-specific demethylase 4E (Homo sapiens) (UniProt B2RXH2)
Test: qHTS Assay for Inhibitors of Human Jumonji Domain Containing 2E (JMJD2E)
Conditions: JMJD2E catalytic domain, FDH-coupled NADH fluorescence (FDH is formaldehyde dehydrogenase); series mostly up to 57.1 µM
Also: nearly all actives have a fitted effect of over 50% in size.
Potency is read from the fitted curve at half-maximal effect.

By UniProt entry, the sequences of proteins in these tests, tags left out. Where a name states a change or a piece, a line headed by the entry shows the natural chain unless it says otherwise.
UniProt B2RXH2: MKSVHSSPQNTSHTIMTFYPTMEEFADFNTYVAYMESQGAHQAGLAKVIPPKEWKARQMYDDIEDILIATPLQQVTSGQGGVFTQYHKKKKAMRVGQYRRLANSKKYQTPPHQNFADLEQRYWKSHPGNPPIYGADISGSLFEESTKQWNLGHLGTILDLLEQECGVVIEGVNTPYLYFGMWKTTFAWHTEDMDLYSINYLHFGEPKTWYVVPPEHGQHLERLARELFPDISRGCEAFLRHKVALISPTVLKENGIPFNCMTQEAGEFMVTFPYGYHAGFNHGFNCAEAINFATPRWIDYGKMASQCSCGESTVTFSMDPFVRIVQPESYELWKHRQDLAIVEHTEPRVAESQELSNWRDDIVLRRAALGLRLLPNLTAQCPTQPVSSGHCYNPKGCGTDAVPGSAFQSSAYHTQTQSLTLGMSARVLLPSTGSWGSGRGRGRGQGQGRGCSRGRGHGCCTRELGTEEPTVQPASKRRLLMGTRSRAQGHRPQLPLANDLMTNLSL

Row | Compound | Potency
1 | CC1CCC(C(C)C)C(OP(=O)(Nc2ccccn2)c2ccccc2)C1 (configuration not stated) | inactive
2 | Cc1nn(-c2ccccc2)c2c1P(=O)(N1CCOCC1)N(C)C(c1ccccc1)=N2 (configuration not stated) | inactive
3 | CN(C)C1(CNC(=O)c2ccc(S(C)(=O)=O)cc2)CCCCC1 | inactive
4 | O=C(/C=C/c1ccccc1)OC1CN2CCC1CC2 (configuration not stated) | inactive
5 | O=P1(Nc2ncccn2)COc2ccccc2OC1 | inactive
6 | Nc1cccc([As](=O)(O)c2ccccc2)c1 | inactive
7 | Cc1ccc(OCC(=O)OC2CN3CCC2CC3)cc1 (configuration not stated) | inactive
8 | O=[As](O)(c1cccs1)c1cccs1 | inactive
9 | O=P1(Nc2ccc(Br)cn2)COc2ccccc2OC1 | inactive
10 | O=P1(Nc2ccccn2)COc2ccccc2OC1 | inactive
11 | CN(CCCl)Cc1cc(Cl)c(NC2=NCCN2)c(Cl)c1 | inactive
12 | CC(C)(C)C(=O)NC(Sc1ncccn1)C(Cl)(Cl)Cl (configuration not stated) | inactive
13 | Clc1n[nH]nc1-c1nn[nH][15n]1 | inactive
14 | CC(C)/C=N\N=C(\N)N[N+](=O)[O-] | inactive
15 | CN(C(=O)Cc1ccc(Cl)c(Cl)c1)[C@@H]1CCCC[C@H]1N1CCCC1 | inactive
16 | O=[As](O)(c1ccccc1Br)c1ccccc1Br | inactive
17 | CN(C(=O)Cc1ccc(Cl)c(Cl)c1)[C@@H]1CC[C@]2(CCCO2)C[C@H]1N1CCCC1 | inactive
18 | O=C(OC1CN2CCC1CC2)c1ccc(Cl)cc1 (configuration not stated) | inactive
19 | O=[As](O)(O)c1cccnc1 | inactive
20 | COc1cc(C(=O)NCC2(N3CCOCC3)CCCCC2)cc(Cl)c1OC(C)C | inactive
21 | Cc1cccc(OCC(=O)OC2CN3CCC2CC3)c1 (configuration not stated) | inactive
22 | O=[As](O)(c1cccc(O)c1)c1cccc(O)c1 | inactive
23 | Cc1ccc(NCCc2c([N+](=O)[O-])cc([N+](=O)[O-])cc2[N+](=O)[O-])cc1 | inactive
24 | CCCOP(=S)(Nc1nc(N)cc(=O)[nH]1)OCCC | inactive
25 | COc1cc(C2NCCC3(OCCO3)C2(C)C)cc(OC)c1OC (configuration not stated) | inactive
26 | O=P(Nc1nccs1)(Oc1ccccc1)Oc1ccccc1 | inactive

Row | Compound | Potency
27 | O=P(Nc1nccs1)(c1ccccc1)c1nc2ccccc2s1 (configuration not stated) | active: 7.94 µM
28 | CCOP1(=S)c2c(C)nn(CCC#N)c2N=C(c2ccccc2F)N1C (configuration not stated) | inactive
29 | CS(=O)(=O)c1cc([N+](=O)[O-])c2no[n+]([O-])c2c1 | active: 10 µM
30 | Nc1ccccc1[As](=O)(O)c1ccccc1 | inactive
31 | O=C(O)COc1ccc([As](=O)(O)O)cc1[N+](=O)[O-] | inactive
32 | O=[N+]([O-])CC(O)c1ccc([N+](=O)[O-])cc1 (configuration not stated) | inactive
33 | NC(=O)Nc1ccc([As](=O)(O)O)cc1 | inactive
34 | CN(C(=O)Cc1ccccc1)[C@@H]1CC[C@]2(CCCO2)C[C@H]1N1CCCC1 | inactive
35 | CCOP1(=S)c2c(C)nn(CCC#N)c2N=C(c2ccc(F)cc2)N1C (configuration not stated) | inactive
36 | O=[N+]([O-])c1ccc2c(c1)nnn2O | inactive
37 | O=[As](O)(c1ccc(O)cc1)c1ccccc1O | inactive
38 | C[As](=O)(O)c1cccc(C(=O)O)c1 | inactive
39 | Cc1ccc(OP(=O)(Nc2ccc([N+](=O)[O-])cn2)Oc2ccc(C)cc2)cc1 | inactive
40 | Cc1ccc2nc3c(c(C)c2c1)CC(C(Cl)Cl)S3 (configuration not stated) | inactive
41 | ClCCSc1nnc(-c2cccnc2)o1 | inactive
42 | O=[N+]([O-])c1cc([N+](=O)[O-])c(-c2ccn[nH]2)s1 | inactive
43 | CC(C)NC(=O)NP(=O)(Oc1ccccc1)Oc1ccccc1 | inactive
44 | CCN(CC)C(=S)SC(NC=O)C(Cl)(Cl)Cl (configuration not stated) | inactive
45 | Cc1c2c(nc3ccccc13)SC(C(Cl)Cl)C2 (configuration not stated) | inactive
46 | Cc1cc(=O)[nH]c(N[N+](=O)[O-])n1 | inactive
47 | O=C(OC1CN2CCC1CC2)C12CC3CC(CC(C3)C1)C2 (configuration not stated) | inactive
48 | COc1cc(I)ccc1[As](=O)(O)O | inactive
49 | COc1ccc2nc(NP(=O)(c3ccccc3)c3ccccc3)sc2c1 | inactive
50 | COc1ccc(N/C(=N/P(=O)(N2CCOCC2)N2CCOCC2)N2CCOCC2)cc1 | inactive
51 | COP1(=S)c2c(C)nn(CCC#N)c2N=C(c2ccc(F)cc2)N1C (configuration not stated) | inactive
52 | O=C(COc1ccccc1)OC1CN2CCC1CC2 (configuration not stated) | inactive

Row | Compound | Potency
53 | CCOC(=O)c1ccc(NC(=O)C(C)(CCl)SC)cc1 (configuration not stated) | inactive
54 | CCC(C)N(CC(C)C)C(=S)SC(NC(C)=O)C(Cl)(Cl)Cl (configuration not stated) | inactive
55 | CCOC(=O)Nc1ccc([As](=O)(O)O)c(O)c1 | inactive
56 | CCOC(=O)Nc1cccc([As](=O)(O)O)c1 | inactive
57 | O=[N+]([O-])c1ccc(Nc2ccc(Oc3ccc([N+](=O)[O-])cc3[N+](=O)[O-])cc2)c([N+](=O)[O-])c1 | inactive
58 | O=C(Nc1cc([As](=O)(O)O)ccc1O)c1ccccc1 | inactive
59 | O=[N+]([O-])c1ncn(CCn2ncnc2[N+](=O)[O-])n1 | inactive
60 | O=C(O)CNc1ccc([As](=O)(O)O)cc1 | inactive
61 | O=[N+]([O-])c1cccc(NC2=NCC(CBr)S2)c1 (configuration not stated) | inactive
62 | COc1ccc(C2=NCC(CBr)S2)cc1 (configuration not stated) | active: 25.1 µM
63 | CCc1nc2c(n1)c1c(non1O)c1c2no[n+]1[O-] | inactive
64 | O=[N+]([O-])c1cc([N+](=O)[O-])c(CCNc2ccccc2)c([N+](=O)[O-])c1 | inactive
65 | O=[N+]([O-])c1cccc2n[nH]nc12 | inactive
66 | CC(=O)N1C2C3N(C(C)=O)C1C1N(C(C)=O)C(C(N1C(C)=O)N3C(C)=O)N2C(C)=O | inactive
67 | CCN(/C(=N/P(=O)(N1CCOCC1)N1CCOCC1)N1CCOCC1)c1ccc(OC)cc1 | inactive
68 | Nc1ccc([As](=O)(O)c2ccc(N)cc2)cc1 | inactive
69 | CC1CCN(C(=O)Oc2c(Cl)cc(Cl)c3cccnc23)CC1 | inactive
70 | CN(C)C(=O)OCCc1n(C)cc[n+]1C | inactive
71 | CC(C)=N/N=C(\N)N[N+](=O)[O-] | inactive
72 | Cc1ccc(N/C(=N/P(=O)(N2CCOCC2)N2CCOCC2)N2CCOCC2)cc1 | inactive
73 | NC(=O)c1cc([N+](=O)[O-])cc([N+](=O)[O-])c1N | inactive
74 | CN1CCCC(OC(=O)C(c2ccccc2)c2ccccc2)C1 (configuration not stated) | inactive
75 | Clc1ccc(Cl)c(NC2=NCC(CBr)S2)c1 (configuration not stated) | inactive
76 | Cc1ccc(OP(=O)(Nc2nccs2)Oc2ccc(C)cc2)cc1 | inactive
77 | Cc1c2non([O-])c-2c(C)[n+](=O)[n+]1[O-] | inactive
